Test results: patent publication US8957093B2, “N-biphenylmethylindole modulators of PPARG” (The Scripps Research Institute, priority 2011, dated 2015)

Chains of the proteins cited; added tags and fusions are not shown. Residues count along the entry.
UniProt P37231, 238-503: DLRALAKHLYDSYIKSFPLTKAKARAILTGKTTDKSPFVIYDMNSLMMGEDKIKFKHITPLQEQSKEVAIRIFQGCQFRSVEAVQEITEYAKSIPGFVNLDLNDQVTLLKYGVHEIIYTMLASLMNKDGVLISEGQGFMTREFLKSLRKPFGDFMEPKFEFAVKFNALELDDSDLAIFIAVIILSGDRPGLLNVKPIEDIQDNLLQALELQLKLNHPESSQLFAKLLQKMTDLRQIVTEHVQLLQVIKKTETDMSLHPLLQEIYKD

Target: Gal-4-PPAR (human PPAR LBD fused to GAL4 DNA-binding domain) (Homo sapiens (Human), UniProt P37231)
Test: GAL4-PPARG LBD / UAS-luciferase transactivation assay in HEK 293T cells
Assay type: cell-based

## CN(CCOc1ccc(CC2SC(=O)NC2=O)cc1)c1ccccn1 (stereo not shown) [rosiglitazone, reference compound]
  activation of the GAL4 UAS reporter: about 100 fold
